Results reported in US11221334B2, “Method for determining breast cancer treatment” (THE REGENTS OF THE UNIVERSITY OF COLORADO, A BODY CORPORATE, priority 2012, dated 2022).

Tested on: FASN, GCDFP-15, PRLR
Conditions: MDA-MB-453 cells; DHT

In the case of `CNC(=O)c1ccc(N2C(=S)N(c3ccc(C#N)c(C(F)(F)F)c3)C(=O)C2(C)C)cc1F` [enzalutamide], the “expression of androgen/AR-dependent genes FASN, GCDFP-15 and PRLR” value is reported as “reduced”.
